ChEMBL document CHEMBL1147515, “Nickel(II) and cobalt(II) complexes of hydroxyl-substituted triazamacrocyclic ligand as potential antitumor agents” (2004)

Columns and labels:
Conditions in all cases: Homo sapiens
Bel-7402 [1] = experiment: Percentage of growth inhibition of BEL-7402 cells treated for 48 hr at 10E-3 M/L and incubated with 5 g/L MTT for 4 h.; assay type: functional
Bel-7402 [2] = experiment: Percentage of growth inhibition of BEL-7402 cells treated for 48 hr at 10E-4 M/L and incubated with 5 g/L MTT for 4 h.; assay type: functional
Bel-7402 [3] = experiment: Percentage of growth inhibition of BEL-7402 cells treated for 48 hr at 10E-5 M/L and incubated with 5 g/L MTT for 4 h.; assay type: functional, cell-based
HXO-RB44 cell line [4] = experiment: Percentage of growth inhibition of HXO-RB44 cells treated for 48 hr at 10E-4 M/L and incubated with 5 g/L MTT for 4 h.; assay type: functional
HXO-RB44 cell line [5] = experiment: Percentage of growth inhibition of HXO-RB44 cells treated for 48 hr at 10E-5 M/L and incubated with 5 g/L MTT for 4 h.; assay type: functional
HXO-RB44 cell line [6] = experiment: Percentage of growth inhibition of HXO-RB44 cells treated for 48 hr at 10E-6 M/L and incubated with 5 g/L MTT for 4 h.; assay type: functional

NICKEL (II) ION
inhibition (Bel-7402 [1]): 89% | inhibition (Bel-7402 [2]): 3% | inhibition (Bel-7402 [3]): 1% | inhibition (HXO-RB44 cell line [4]): 6% | inhibition (HXO-RB44 cell line [5]): 2% | inhibition (HXO-RB44 cell line [6]): 1%
